Data reported in ChEMBL document CHEMBL1131615, “Synthesis and tyrosine kinase inhibitory activity of a series of 2-amino-8H-pyrido[2,3-d]pyrimidines: identification of potent, selective platelet-derived growth factor receptor tyrosine kinase inhibitors” (J Med Chem, 1998).

By UniProt entry, the sequences of proteins in these tests, tags left out. Where a name states a change or a piece, a line headed by the entry shows the natural chain unless it says otherwise.
UniProt P05480: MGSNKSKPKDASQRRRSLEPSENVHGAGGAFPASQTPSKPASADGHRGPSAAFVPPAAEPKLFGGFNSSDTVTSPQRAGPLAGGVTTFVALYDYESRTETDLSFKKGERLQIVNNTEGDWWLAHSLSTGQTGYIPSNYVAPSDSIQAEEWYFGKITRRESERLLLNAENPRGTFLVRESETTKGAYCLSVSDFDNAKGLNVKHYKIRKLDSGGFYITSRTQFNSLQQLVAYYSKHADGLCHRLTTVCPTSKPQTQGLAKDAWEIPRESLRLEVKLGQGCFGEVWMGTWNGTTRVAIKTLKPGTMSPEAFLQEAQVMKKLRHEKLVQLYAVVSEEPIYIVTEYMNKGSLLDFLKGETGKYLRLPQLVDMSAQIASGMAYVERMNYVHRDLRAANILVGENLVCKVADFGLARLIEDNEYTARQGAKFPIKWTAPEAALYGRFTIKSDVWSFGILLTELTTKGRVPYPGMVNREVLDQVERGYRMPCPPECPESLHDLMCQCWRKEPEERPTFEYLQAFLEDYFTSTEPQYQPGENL

Molecular target: Proto-oncogene tyrosine-protein kinase Src (Mus musculus, UniProt P05480)
Assay: Inhibition of mouse c-Src tyrosine kinase

Work on `CCN(CC)CCOc1ccc(Nc2ncc3cc(-c4c(Cl)cccc4Cl)c(=O)n(C)c3n2)cc1` [PD-0166285] yielded an IC50 of 9 nM.
